Reference: patent US20100311642A1, “USE OF V2 RECEPTOR ANTAGONISTS IN COMBINATION WITH VASO PRESSINERGIC AGNOSTS” (Ferring B.V., priority 2007, published 2010)

The chains behind the UniProt entries cited, without tags or fusion partners.
UniProt P30518, whole entry: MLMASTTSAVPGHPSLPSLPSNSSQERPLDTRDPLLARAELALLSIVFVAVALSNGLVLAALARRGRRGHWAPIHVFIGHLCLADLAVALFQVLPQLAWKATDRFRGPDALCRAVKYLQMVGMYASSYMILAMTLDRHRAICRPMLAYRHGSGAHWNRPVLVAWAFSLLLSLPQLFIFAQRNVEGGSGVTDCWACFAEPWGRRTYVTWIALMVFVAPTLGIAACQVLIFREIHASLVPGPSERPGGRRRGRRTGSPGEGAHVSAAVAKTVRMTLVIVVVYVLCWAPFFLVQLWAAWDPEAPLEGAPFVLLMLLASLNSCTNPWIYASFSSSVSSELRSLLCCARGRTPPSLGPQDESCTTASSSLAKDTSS
UniProt Q00788, whole entry: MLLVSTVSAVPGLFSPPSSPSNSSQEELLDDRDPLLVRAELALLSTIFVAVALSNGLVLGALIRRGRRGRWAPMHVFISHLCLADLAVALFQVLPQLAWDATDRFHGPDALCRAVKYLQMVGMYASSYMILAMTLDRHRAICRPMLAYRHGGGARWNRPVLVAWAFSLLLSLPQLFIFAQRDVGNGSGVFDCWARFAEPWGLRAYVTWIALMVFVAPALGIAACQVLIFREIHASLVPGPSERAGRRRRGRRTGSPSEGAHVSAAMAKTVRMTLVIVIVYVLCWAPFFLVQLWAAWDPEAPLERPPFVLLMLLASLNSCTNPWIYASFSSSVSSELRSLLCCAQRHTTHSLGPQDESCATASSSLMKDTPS

Tests used:
[1] = target: T1, human V2 receptor (hV2R) (Homo sapiens, UniProt P30518); experiment: Antagonist transcriptional reporter gene assay, human V2 receptor; format: cell-based; conditions: hV2, HEK-293 reporter gene, vs AVP; Ki calculated from IC50; read-out: Geomean Ki
T1 construct: expressed in transfected cells; host or cells: HEK-293
Procedure: Agonist activity of compounds on the human V2 receptor (hV2R) and the rat V2 receptor (rV2R) was determined in a transcriptional reporter gene assay in which HEK-293 cells were transiently transfected with either the human or rat V2 receptor, and a reporter DNA containing cyclic-AMP responsive promoter elements regulating expression of firefly luciferase. See Castarion, M. J., Spevak, W., Biochem Biophys Res Commun.1994 Jan.
Antagonist activity of compounds on the human V2 receptor (hV2R) and the rat V2 receptor (rV2R) was determined in a transcriptional reporter gene assay as in section III.A; see Castañón, M. J. et al. supra. […] Ki values were calculated from IC50 values.

[2] = target: T2, rat V2 receptor (rV2R) (Rattus norvegicus, UniProt Q00788); experiment: Agonist transcriptional reporter gene assay, rat V2 receptor; format: cell-based
T2 construct: expressed in transfected cells; host or cells: HEK-293

Row | Structure (SMILES) | Ki [1] | EC50 [2]
1 | Cc1ccccc1C(=O)Nc1ccc(C(=O)N2CCCC(O)c3cc(Cl)ccc32)c(C)c1 (centres unmarked) [tolvaptan] | 2.7 nM | –
2 | NC(=O)CC[C@@H]1NC(=O)[C@H](Cc2ccccc2)NC(=O)[C@H](Cc2ccc(O)cc2)NC(=O)[C@@H](N)CSSC[C@@H](C(=O)N2CCC[C@H]2C(=O)N[C@@H](CCCN=C(N)N)C(=O)NCC(N)=O)NC(=O)[C@H](CC(N)=O)NC1=O [Arginine vasopressin, AVP, arginine vasopressin] | – | 0.03 nM
